Earlier results in patent publication US20160143906A1, “EFFICACIOUS TREATMENT OF NSCLC AND PREDICTIVE CLINICAL MARKER OF THE RESPONSIVENESS OF A TUMOUR TO A TREATMENT” (Boehringer Ingelheim International GmbH, priority 2013, published 2016).

Test system: tumors with activating EGFR mutations or the Alk translocation
Settings: monotherapy; non-squamous patients with activating EGFR mutations or Alk translocation; cited from earlier work

COc1cc2ncnc(Nc3ccc(F)c(Cl)c3)c2cc1OCCCN1CCOCC1 [gefitinib]
OS improvement: no OS improvements have been observed | median PFS: around 20 months
